Experimental data: publication PMC6151454

Molecular target: Calcineurin (CaN) enzyme from bovine brain (bovine (endogenous in brain)) (UniProt P48452)

- specific phosphatase activity of CaN against 4-MUP when CaM was pretreated with equivalent concentration of CaNp: 0.24 µM/h
- specific phosphatase activity of CaN against 4-MUP with equivalent concentration of CaM (0.12 µM/h without CaM): 0.83 µM/h
Substance: Calmodulin (CaM), chicken, recombinant (from UniProt P62149 2-149) (natural protein)
